Legend:
human NMT1 (HsNMT1) = molecular target: T1, human NMT1 (HsNMT1) (Homo sapiens, UniProt P30419); test: HsNMT1 sensitive fluorescence-based assay (CoA detection with CPM); format: biochemical
T1 sequence (P30419 1-496): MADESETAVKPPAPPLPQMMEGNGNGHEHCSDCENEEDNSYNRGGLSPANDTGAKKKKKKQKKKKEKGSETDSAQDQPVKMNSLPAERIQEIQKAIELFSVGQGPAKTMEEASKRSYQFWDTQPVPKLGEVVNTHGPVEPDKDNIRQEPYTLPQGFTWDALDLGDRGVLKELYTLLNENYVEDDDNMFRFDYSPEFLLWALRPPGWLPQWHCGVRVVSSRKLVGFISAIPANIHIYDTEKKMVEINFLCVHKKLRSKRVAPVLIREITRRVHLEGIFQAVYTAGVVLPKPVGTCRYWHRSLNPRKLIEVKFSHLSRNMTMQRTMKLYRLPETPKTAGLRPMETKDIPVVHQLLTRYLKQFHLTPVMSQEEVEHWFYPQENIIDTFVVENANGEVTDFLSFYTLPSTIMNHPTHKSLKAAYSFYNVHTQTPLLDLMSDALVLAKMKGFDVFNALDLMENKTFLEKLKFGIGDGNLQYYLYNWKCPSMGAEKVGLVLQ
Description: The IC50 values for human NMT1 (HsNMT1) of certain Example compounds, and Comparator Compound 1, were measured using a sensitive fluorescence-based assay based on detection of CoA by 7-diethylamino-3-(4-maleimido-phenyl)-4-methylcoumarin, as described in Goncalves, V., et al., Analytical Biochemistry, 2012, 421, 342-344 and Goncalves, V., et al., J. Med. Chem, 2012, 55, 3578.

NCI-N87 tumour cells = test: Gastric cancer xenograft model (NCI-N87), tumour volume; format: in vivo, mouse; settings: for tumour volumes compared to vehicle alone: all concentrations (2.5 mg/kg or 5 mg/kg), p<0.0001; for TGI study day 28: BALB/c nude mice
Description: In this study, 143 mice were inoculated subcutaneously in the right flank region with 1×10^7 viable NCI-N87 tumour cells resuspended in 0.1 mL of PBS mixed with Matrigel (1:1) for tumour development. 102 mice were assigned to 9 treatment groups on study day 0 when tumour volumes averaged 168.08 mm^3. […] The study was terminated on study Day 28.
Tumour volumes in mice were measured three times per week and tumour volume was calculated using the formula 0.5 (L×W2).
Tumour Growth Inhibition, ΔTGI %=((mean(C)−mean (C0))−(mean(T)−mean(T0)))/(mean(C)−mean(C0))*100% where T is the mean tumour volume of the treated group on the measurement day and TO is the mean tumour volume on Study Day 0. C is the mean tumour volume of the control Group 1 mice on the measurement day and C0 is the mean tumour volume on Study Day 0.

[1] = Body weight in BT474 xenograft study; format: in vivo, mouse; settings: 2.5 or 5 mg/kg IV once per week
Description: During the study, body weights were measured three times weekly for all animals. Animals were given Diet Gel for the entire duration on the study.

[2] = system: BT474 breast cancer cells; test: Orthotopic breast cancer xenograft model (BT474), tumour volume; format: in vivo, mouse; settings: NOD/SCID mice
Description: NOD/SCID mice were implanted with estrogen pellets (17β-estradiol, 60 day release, 0.36 mg) subcutaneously in the right flank one day before the tumour inoculation. On day −8 each mouse was then injected in the right mammary fat pad with 1×10^7 viable BT474 breast cancer cells resuspended in 0.2 mL of Phosphate Buffered Saline mixed with matrigel (1:1). Mice were assigned to treatment groups when tumour volumes averaged 149.78 mm^3 on study day 0. […] The study was terminated on Study Day 35. […] Each group was comprised of 10 mice. Tumour volumes in mice were measured three times per week and tumour volume was calculated using the formula 0.5 (L×W^2). The mean tumour volumes (+SEM) for each study group at each measurement are shown in FIGS. 7 and 8 plotted as Last Observation Carried Forward. Statistical analyses were carried out on tumour readings for Groups 1, 2, 3, 4 and 5 up to Study Day 23 (after this point >50% of the animals within one of the study groups were lost; Group 2) using two-way ANOVA, or a Mixed-Effects model was fitted when values were missing from groups (PRISM GraphPad Software Inc.). Statistical analysis of Group 6 was conducted until day 12 (at this point the study was terminated due to the significant loss of observed body weight). […]

[3] = Body weight in NCI-N87 xenograft study; format: in vivo, mouse; settings: regained by next measurement
Description: During the study, body weights were measured three times weekly for all animals. Animals were given Diet Gel for the entire duration on the study. The mean body weights for each group during the dosing phase are presented in FIGS. 13A (2.5 mg/kg) and 13B (5 mg/kg).

Molecule	IC50 (human NMT1 (HsNMT1))	tumour volumes compared to vehicle alone (NCI-N87 tumour cells)	body weights compared to vehicle control [1]	Tumor growth inhibition % on day 23 ([2]; 2.5 mg/kg IV once per week for four weeks)	Tumor growth inhibition % on day 23 ([2]; 5 mg/kg IV once per week for four weeks)	Significant body weight loss (>10%), animals affected ([3]; 2.5 mg/Kg)	Significant body weight loss (>10%), animals affected ([3]; 5 mg/Kg)	TGI study day 28 (NCI-N87 tumour cells; 2.5 mg/Kg IV QW x 2 weeks)	TGI study day 28 (NCI-N87 tumour cells; 5 mg/Kg IV QW x 2 weeks)
CNCc1cnc2ccc(-c3ccc(F)cc3OCCc3c(C(C)(C)O)nn(C)c3C)cn12 [Example 18, 2-(4-(2-(5-fluoro-2-(3-((methylamino)methyl)imidazo[1,2-a]pyridin-6-yl)phenoxy)ethyl)-1,5-dimethyl-1H-pyrazol-3-yl)propan-2-ol]	1.9 nM								
trastuzumab deruxtecan		significant decrease							
trastuzumab: antibody binding HER2; heavy chain SEQ ID NO: 2, light chain SEQ ID NO: 1		significant decrease	did not differ significantly from the vehicle control	3.6%	46%	one animal	one animal	123.08%	167.70%

— patent US20260049075A1, “CYTOTOXIC IMIDAZO[1,2-A]PYRIDINE COMPOUNDS AND THEIR USE IN THERAPY” (MyricX Pharma Limited, priority 2022, published 2026)
